According to patent US20050084493A1 (Amgen, published 2005):

Target: T1, IL-1β (Homo sapiens (Human), UniProt P01584 117-269)
T1 construct: also called IL-1 beta; IL-1b
T1 sequence: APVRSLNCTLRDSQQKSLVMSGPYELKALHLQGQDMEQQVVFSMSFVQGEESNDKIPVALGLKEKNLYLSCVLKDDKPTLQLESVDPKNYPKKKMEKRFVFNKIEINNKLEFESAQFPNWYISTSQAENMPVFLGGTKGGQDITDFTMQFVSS
Test: ECL (Origen) competition of complex formation: antibody titrated against biotinylated sIL-1 receptor (1 nM), IL-1β (1 nM), ruthenium-tagged IL-1RacP (5 nM)

IC50: 0.556 nM
B1: chimeric MAb201 (murine MAB201 V regions on human IgG1 / human kappa constant regions) (antibody, V domains shown)
VH: QVTLKESGPGILKPSQTLSLTCSFSGFSLSTSGMGVGWIRQPSGKGLEWLAHIWWDGDESYNPSLKTRLTISKNTSRNQVFLKITTVDTVDTATYFCARNRYDPPWFVDWGQGTLVTVSS
VL: DIQMTQTTSSLSASLGDRVTISCRASQDISNYLSWYQQKPDGTVKLLIYYTSKLHSGVPSRFSGSGSGTDYFLTISNLEQEDIATYFCLQGKMLPWTFGGGTKLEIKR
modifications: partial glycosylation at the Fv region of the heavy chain (site not numbered)
